# Sampled rows, rich in hits. Any-hit rate of the full collection: about 2.8%.
# Wnt act – activators of Wnt/beta-catenin signaling | Wnt/beta-catenin reporter cell assay, activator, plate reader | activation, % at 9.35 µM | 1.2% of 300,000 active | AID 743398; in the data active = activation above about 30%, passing the limit was not always enough; inconclusive = no clear call, values can overlap the other calls;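 note: 0% = neutral control wells and 100% = positive control wells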
# MITF TRPM1 HTS – MITF TRPM1 promoter activation in melanoma cells. SK-MEL-5 TRPM1-promoter luciferase, 24 h; % of positive control, neutral wells = 0. activation, % at 12.5 µM. 0.75% of 300,000 active. AID 588334;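 active = mean activation of at least 80% with every replicate also reaching 80%; inconclusive = mean reaches 80% but some replicate falls short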;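 note: 0% = neutral control wells and 100% = parthenolide positive control wells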
# PglD DTNB – blocks C. jejuni PglD acetyltransferase activity; inhibition, % at 12.5 µM; AID 602405; 0.098% of 360,000 active; purified PglD enzyme, DTNB colorimetric CoA detection; in the data active = inhibition above about 16%, passing the limit was not always enough; inconclusive = no clear call, values can overlap the other calls
# esBAF inh – blocks esBAF chromatin remodeling in mouse ES cells; Bmi1-luciferase knock-in reporter, 24 h; 100% = twice the neutral-well signal; reporter increase, % at 12.5 µM; 2% of 350,000 active; AID 602393; in the data active = activation above about 40%; inconclusive = no clear call, values can overlap the other calls;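 note: 0% = median of the plate's neutral control wells and 100% = double that signal; a rise in the Bmi1 reporter signal indicates esBAF inhibition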
# Yeast UUG start – alters start codon recognition fidelity in yeast. S. cerevisiae UUG-firefly luciferase reporter, luminescence/redox ratio. activity score, % at 18.7 µM. 0.13% of 350,000 active. AID 602363;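 active = replicate mean at a twofold rise or more, about +100% in these data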;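 also: firefly luciferase made from a UUG start codon reports start codon fidelity; reporter light over untreated wells divided by growth signal over untreated wells; some hits fall short of that in this replicate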
# miR-122 sensor – blocks miR-122 activity in Huh7 sensor cells; Huh7 miR-122 Renilla luciferase sensor, 48 h; neutral wells = 0, positive control = 100; activation (reporter increase), % at 12.5 µM; 0.3% of 340,000 active;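 active = mean replicate activation score at least 90 and every replicate individually at or above 90; inconclusive = only one of the two criteria met; inactive = neither criterion met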;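 note: higher luciferase means less miR-122 activity so hits act as miR-122 inhibitors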
# * hit, by the source's call; ? = inconclusive; / = no result given; [ ] = another dose, or the depositor's remark.
SMILES,Wnt act,MITF TRPM1 HTS,PglD DTNB,esBAF inh,Yeast UUG start,miR-122 sensor
CC1CN(C(=O)c2ccc(-c3ccccc3Cl)o2)CC(C)O1 (stereo unspecified),3,67,-2,33,-2,-6
CC(=O)N1CCN(C(=O)c2ccc(-c3ccccc3Cl)o2)CC1,25,65,-4,47*,-22,/
CCC(=O)N[C@@H]1C=C[C@H](CC(=O)NCc2ccccc2OC)O[C@@H]1CO,/,/,2,-3,-7,/
O=c1c(-c2ccccc2)nc(-c2ccccc2)cn1O,/,33,-2,54*,1,-5
O=C(N[C@H]1C=C[C@@H](CC(=O)N2CCOCC2)O[C@H]1CO)c1ccc2c(c1)OCO2,/,/,-2,1,-8,/
COc1ccc(-c2cc3cc(F)ccc3cn2)cc1,43*,67,-4,5,-20,3
COc1cc(OC)cc(-c2cc3cc(F)ccc3cn2)c1,39*,121*,1,69*,-3,-5
COc1ccc(-c2cc3ccc(F)cc3cn2)cc1,?,55,2,-6,-29,10
CCSc1nnc(Nc2ccc(C)cc2)s1,/,89*,7,83*,-21,4
CCSc1nnc(Nc2ccccc2)s1,5,69,0,58*,-7,2
Cc1ccc(CSc2nnc(Nc3ccc(C)cc3)s2)cc1,/,/,0,-1,-7,-3
O=C1CCCCC1Sc1nnc(Nc2ccccc2)s1 (stereo unspecified),9,73,1,71*,-17,/
C/C(N)=C(/C#N)C(=O)CSc1nnc(Nc2ccccc2)s1,39*,54,/,/,/,/
C[C@@H]1CN([C@H](C)CO)C(=O)c2cc(-c3cccnc3)cnc2O[C@@H]1CN(C)C(=O)Nc1ccccc1,/,/,4,2,/,13[16.7 µM]
COc1cccc(-c2cnc3c(c2)C(=O)N([C@H](C)CO)C[C@H](C)[C@@H](CN(C)C(=O)CN(C)C)O3)c1,/,/,4,1,5,-7[16.7 µM]
O=C(N[C@H]1CC[C@@H](CCn2cc(C3(O)CCCC3)nn2)O[C@H]1CO)C1CC1,/,/,1,-3,-5,/
CCSc1nnc(NC(=O)c2ccccc2)s1,23,104*,/,/,/,/
CCSc1nnc(NC(=O)c2cc3c(s2)CCCC3)s1,/,105*,0,54*,4,-1
O=C(Nc1nnc(SCc2ccccc2)s1)c1cc2c(s1)CCCC2,/,20,7,13,-20,-4
C[C@@H]1CN([C@@H](C)CO)C(=O)c2cccc(NC(=O)Nc3ccc(F)cc3)c2O[C@H]1CN(C)S(=O)(=O)c1cn(C)cn1,/,/,/,0,/,-6[16.7 µM]
Cc1cccc(-c2ccc([C@H]3[C@H](CO)N4CCCCN(Cc5cncnc5)C[C@@H]34)cc2)c1,/,/,-5,1,-14,-3[16.7 µM]
CCCC(=O)N/N=C1\CS(=O)(=O)N(C)c2ccsc21,-1,5,8,-1,-9,-1
CN1c2ccsc2/C(=N/Nc2ccc(F)cc2)CS1(=O)=O,12,16,0,64*,-22,2
Cc1ccc(N/N=C2\CS(=O)(=O)N(C)c3ccsc32)cc1,8,9,19,59*,-12,1
COCC#Cc1ccc2c(c1)O[C@H](CN(C)Cc1ccccn1)[C@H](C)CN([C@@H](C)CO)S2(=O)=O,/,/,/,-2,/,-1[16.7 µM]

# Rewritten with values under each structure: 5 of the compounds above
# Values in the order – Wnt act	MITF TRPM1 HTS	PglD DTNB	esBAF inh	Yeast UUG start	miR-122 sensor
- COc1cccc(-c2cnc3c(c2)C(=O)N([C@H](C)CO)C[C@H](C)[C@@H](CN(C)C(=O)CN(C)C)O3)c1
  /	/	4	1	5	-7[16.7 µM]
- CC1CN(C(=O)c2ccc(-c3ccccc3Cl)o2)CC(C)O1 (stereo unspecified)
  3	67	-2	33	-2	-6
- C[C@@H]1CN([C@H](C)CO)C(=O)c2cc(-c3cccnc3)cnc2O[C@@H]1CN(C)C(=O)Nc1ccccc1
  /	/	4	2	/	13[16.7 µM]
- CCSc1nnc(NC(=O)c2cc3c(s2)CCCC3)s1
  /	105*	0	54*	4	-1
- CCSc1nnc(NC(=O)c2ccccc2)s1
  23	104*	/	/	/	/

# (more compounds)
SMILES,Wnt act,MITF TRPM1 HTS,PglD DTNB,esBAF inh,Yeast UUG start,miR-122 sensor
CC(C)S(=O)(=O)c1cnc(N2CCOCC2)nc1N,40*,/,/,/,/,/
CCOC(=O)C(=O)N(Nc1ccc(C)cc1)c1ccc(C)cc1,44*,28,/,/,/,/
CCC(O)(CC)C(=O)N(Nc1ccc(C)cc1)c1ccc(C)cc1,-3,/,-2,2,-26,-2
CC(/C=N/N1CCN(c2ccccc2)CC1)=C\c1ccco1,21,61,2,2,-25,4
CC(=C/c1ccco1)/C=N/N1CCN(c2ccccc2)CC1,/,/,/,49*,-21,-7
CCOCC(=O)Nc1c(C(=O)N2CCN(c3ncccn3)CC2)oc2ccccc12,5,19,0,-9,1,125*
COc1ccc(OCC(=O)Nc2c(C(=O)N3CCN(C)CC3)oc3ccccc23)cc1,2,2,-5,-5,12,6
O=c1cc(COc2ccc(Cl)c(Cl)c2)nc2sccn12,?,74,-2,45*,-17,7
O=C(OCc1cc(=O)n2ccsc2n1)c1ccccc1O,-1,?,-4,74*,-27,0

# Screening results deposited in PubChem BioAssay by Broad Institute.
